Reference: patent US11053226B2, “KRAS G12C inhibitors and methods of using the same” (Amgen Inc., priority 2018, dated 2021)

Protein sequences, listed by entry. Tags and fused reporters are not part of them. Lines headed by an entry give the natural chain unless they say otherwise; changes in a name come on top.
UniProt P01116: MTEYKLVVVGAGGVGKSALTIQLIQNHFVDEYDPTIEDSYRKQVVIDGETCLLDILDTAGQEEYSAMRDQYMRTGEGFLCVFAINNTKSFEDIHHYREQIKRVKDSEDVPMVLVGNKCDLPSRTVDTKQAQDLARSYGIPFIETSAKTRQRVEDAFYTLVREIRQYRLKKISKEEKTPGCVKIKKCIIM

Target: GDP-bound KRAS protein (aa 1-169), containing both G12C and C118A amino acid substitutions (Homo sapiens (Human), UniProt P01116, C118A/G12C)
Test: Coupled Nucleotide Exchange Assay
Format: biochemical
Protocol: For compounds in Table 9, the following assay conditions were employed:
Coupled Nucleotide Exchange Assay:
The assay plates were then read on a PerkinElmer EnVision Multilabel Reader, using AlphaScreen® technology, and data were analyzed using a 4-parameter logistic model to calculate IC50 values.

[1] = read-out: Coupled Exchange IC50 (2 h), 2 h compound pre-incubation
[2] = read-out: Coupled Exchange IC50 (20 h), 20 h compound pre-incubation

C=CC(=O)N1CC(NC(=O)Cn2cc(C(=O)N3CCc4cc(Br)ccc4C3)c3cc(Br)ccc32)C1 [Example 104]
IC50 [1]: 2320 nM
IC50 [2]: 660 nM

C=CC(=O)N1CC(NC(=O)Cn2cc(C(=O)N3CCc4cc(Br)ccc4C3)c3cc(Br)ccc32)C1 [Example 106]
IC50 [1]: 630 nM
IC50 [2]: 180 nM

Like-named read-outs stand apart in the source and are kept apart here.
